From article PMC5762315, “Inhibition of polo-like kinase 4 (PLK4): a new therapeutic option for rhabdoid tumors and pediatric medulloblastoma” (Oncotarget, 2017)

Protein sequences, listed by entry. Tags and fused reporters are not part of them. Lines headed by an entry give the natural chain unless they say otherwise; changes in a name come on top.
UniProt P41240: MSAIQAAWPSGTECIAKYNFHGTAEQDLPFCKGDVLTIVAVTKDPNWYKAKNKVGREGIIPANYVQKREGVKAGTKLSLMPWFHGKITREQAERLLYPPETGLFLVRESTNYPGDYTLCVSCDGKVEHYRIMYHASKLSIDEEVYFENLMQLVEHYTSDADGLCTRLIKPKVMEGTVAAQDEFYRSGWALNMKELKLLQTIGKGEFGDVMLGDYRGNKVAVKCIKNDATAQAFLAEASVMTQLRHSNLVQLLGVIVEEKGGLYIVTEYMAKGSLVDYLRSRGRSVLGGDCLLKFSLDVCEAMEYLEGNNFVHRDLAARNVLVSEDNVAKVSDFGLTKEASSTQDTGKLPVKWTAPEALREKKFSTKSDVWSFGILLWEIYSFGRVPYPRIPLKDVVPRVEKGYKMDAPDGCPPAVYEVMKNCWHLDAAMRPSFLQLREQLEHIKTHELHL

What was measured:
AURKC = target: T1, AURKC (Homo sapiens, UniProt Q9UQB9); experiment: Kinase activity screening (SelectScreen), AURKC; format: biochemical
T1 sequence (Q9UQB9 1-309): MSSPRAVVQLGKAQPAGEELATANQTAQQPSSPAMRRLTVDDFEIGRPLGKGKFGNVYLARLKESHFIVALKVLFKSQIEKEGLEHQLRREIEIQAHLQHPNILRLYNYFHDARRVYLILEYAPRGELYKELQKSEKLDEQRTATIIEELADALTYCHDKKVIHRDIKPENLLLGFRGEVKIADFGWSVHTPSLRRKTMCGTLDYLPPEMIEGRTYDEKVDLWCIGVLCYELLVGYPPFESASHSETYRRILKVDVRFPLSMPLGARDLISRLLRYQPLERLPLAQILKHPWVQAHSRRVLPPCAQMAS

various kinases = various kinases (Homo sapiens, UniProt P41240); format: biochemical; settings: CSK
DAOY cells [1] = settings: 72 hours of treatment, control 0.1% DMSO
D283 cells [2] = settings: 72 hours of treatment, control 0.1% DMSO
DAOY cells [3] = settings: 24 hour treatment with 100nM
D283 cells [4] = settings: 24 hour treatment with 100nM

Structure (SMILES): COc1ccc2c(c1)[C@]1(C[C@H]1c1ccc3c(/C=C/c4ccc(CN5C[C@@H](C)O[C@@H](C)C5)cc4)n[nH]c3c1)C(=O)N2 [CFI-400945]
- IC50 (AURKC): 106 nM
- % Inhibition (various kinases): 61% and 63% and 62%
- proliferation (MTT) vs control (DAOY cells [1]): significantly decreased proliferation
- proliferation (MTT) vs control (D283 cells [2]): significantly decreased proliferation
- cell migration and invasion vs control (DAOY cells [3]): significant decrease
- cell migration and invasion vs control (D283 cells [4]): significant decrease

Several values for one entry are separate records, joined by “and”; a condition that tells them apart may be missing. Identical values can stand only once.
